Consider one compound from patent EP0821954A1, “Method for treating mental retardation” (ELI LILLY AND COMPANY, priority 1996, dated 1998).

Chains of the proteins cited; added tags and fusions are not shown.
UniProt P08172, whole entry: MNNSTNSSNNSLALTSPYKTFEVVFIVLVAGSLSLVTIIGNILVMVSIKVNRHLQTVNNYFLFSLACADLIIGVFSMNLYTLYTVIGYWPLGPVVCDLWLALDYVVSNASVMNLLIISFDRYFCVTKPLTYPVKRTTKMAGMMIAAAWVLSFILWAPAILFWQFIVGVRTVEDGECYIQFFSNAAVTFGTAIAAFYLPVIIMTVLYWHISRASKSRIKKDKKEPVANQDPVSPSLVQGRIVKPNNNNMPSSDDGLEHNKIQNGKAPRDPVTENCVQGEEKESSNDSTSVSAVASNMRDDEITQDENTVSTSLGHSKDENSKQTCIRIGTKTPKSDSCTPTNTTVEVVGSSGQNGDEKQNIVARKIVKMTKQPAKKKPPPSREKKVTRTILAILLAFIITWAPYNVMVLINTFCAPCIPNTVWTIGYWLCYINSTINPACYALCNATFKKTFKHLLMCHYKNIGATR

For this experiment, the target named is m2 receptors in brain stem (Homo sapiens, UniProt P08172). The experiment can be described thus: 3H-quinuclidinyl benzilate binding to m2 receptors in brain stem. Conditions: inhibition of binding of 3H-quinuclidinyl benzilate.

Molecules are shown by their SMILES.

As to `CCCCCCOc1nsnc1C1=CCCN(C)C1` [Xanomeline, 3-(4-hexyloxy-1,2,5-thiadiazol-3-yl)-1,2,5,6-tetrahydro-1-methylpyridine], the Ki (in general, a dissociation constant, usually derived from enzyme kinetics or from competition with a known ligand) is 24 nM.
